From publication PMC11487425 (RSC Medicinal Chemistry, 2024)

Conditions: rat liver microsomes

Structure (SMILES) | microsomal stability in words
COc1cccc2c1C(=O)c1sc3ccc(O)cc3c1-2 [4l, 2-Hydroxy-7-methoxy-6H-benzo[b]indeno[1,2-d]thiophen-6-one] | rapidly metabolized
COc1ccc2c(c1)-c1c(sc3ccc(O)cc13)C2=O [4j, 2-Hydroxy-9-methoxy-6H-benzo[b]indeno[1,2-d]thiophen-6-one] | rapidly degraded to 50% of its initial amount then plateaued for the rest of the assay
